Experimental data taken from ChEMBL document CHEMBL1145097, “3-[(2-Methyl-1,3-thiazol-4-yl)ethynyl]-pyridine: a potent and highly selective metabotropic glutamate subtype 5 receptor antagonist with anxiolytic activity” (J Med Chem, 2003).

Amino acid sequences for entries named in this document (tags omitted).
UniProt P31424, whole entry: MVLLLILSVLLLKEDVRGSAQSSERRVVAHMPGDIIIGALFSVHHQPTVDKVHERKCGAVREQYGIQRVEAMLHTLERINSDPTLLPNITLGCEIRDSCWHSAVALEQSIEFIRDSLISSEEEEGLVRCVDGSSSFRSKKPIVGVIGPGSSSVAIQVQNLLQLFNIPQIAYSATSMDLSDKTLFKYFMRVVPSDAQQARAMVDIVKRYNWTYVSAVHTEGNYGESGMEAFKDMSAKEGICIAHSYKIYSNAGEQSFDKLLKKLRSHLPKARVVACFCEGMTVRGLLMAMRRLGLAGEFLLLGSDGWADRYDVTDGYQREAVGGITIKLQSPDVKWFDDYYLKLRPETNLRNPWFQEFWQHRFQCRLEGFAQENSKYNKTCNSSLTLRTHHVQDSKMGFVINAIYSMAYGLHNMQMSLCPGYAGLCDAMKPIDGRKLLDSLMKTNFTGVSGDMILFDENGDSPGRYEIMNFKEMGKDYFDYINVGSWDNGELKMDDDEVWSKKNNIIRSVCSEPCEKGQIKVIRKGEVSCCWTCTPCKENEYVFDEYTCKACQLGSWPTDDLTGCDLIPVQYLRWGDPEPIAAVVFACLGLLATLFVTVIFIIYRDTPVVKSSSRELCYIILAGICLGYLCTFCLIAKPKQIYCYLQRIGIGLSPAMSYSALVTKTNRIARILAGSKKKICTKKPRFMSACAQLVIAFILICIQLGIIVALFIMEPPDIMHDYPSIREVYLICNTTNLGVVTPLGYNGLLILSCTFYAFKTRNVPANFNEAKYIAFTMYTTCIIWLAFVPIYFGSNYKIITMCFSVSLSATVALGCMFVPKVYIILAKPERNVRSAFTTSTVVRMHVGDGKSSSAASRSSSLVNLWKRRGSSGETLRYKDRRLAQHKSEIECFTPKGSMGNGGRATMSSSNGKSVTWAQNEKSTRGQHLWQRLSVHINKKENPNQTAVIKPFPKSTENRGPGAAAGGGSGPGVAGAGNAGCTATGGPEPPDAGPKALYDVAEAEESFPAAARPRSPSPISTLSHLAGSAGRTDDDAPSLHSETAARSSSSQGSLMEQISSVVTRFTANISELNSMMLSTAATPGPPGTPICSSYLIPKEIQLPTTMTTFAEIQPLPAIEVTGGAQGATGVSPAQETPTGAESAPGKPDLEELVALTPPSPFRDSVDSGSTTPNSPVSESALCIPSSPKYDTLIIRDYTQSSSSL
UniProt P41594, whole entry: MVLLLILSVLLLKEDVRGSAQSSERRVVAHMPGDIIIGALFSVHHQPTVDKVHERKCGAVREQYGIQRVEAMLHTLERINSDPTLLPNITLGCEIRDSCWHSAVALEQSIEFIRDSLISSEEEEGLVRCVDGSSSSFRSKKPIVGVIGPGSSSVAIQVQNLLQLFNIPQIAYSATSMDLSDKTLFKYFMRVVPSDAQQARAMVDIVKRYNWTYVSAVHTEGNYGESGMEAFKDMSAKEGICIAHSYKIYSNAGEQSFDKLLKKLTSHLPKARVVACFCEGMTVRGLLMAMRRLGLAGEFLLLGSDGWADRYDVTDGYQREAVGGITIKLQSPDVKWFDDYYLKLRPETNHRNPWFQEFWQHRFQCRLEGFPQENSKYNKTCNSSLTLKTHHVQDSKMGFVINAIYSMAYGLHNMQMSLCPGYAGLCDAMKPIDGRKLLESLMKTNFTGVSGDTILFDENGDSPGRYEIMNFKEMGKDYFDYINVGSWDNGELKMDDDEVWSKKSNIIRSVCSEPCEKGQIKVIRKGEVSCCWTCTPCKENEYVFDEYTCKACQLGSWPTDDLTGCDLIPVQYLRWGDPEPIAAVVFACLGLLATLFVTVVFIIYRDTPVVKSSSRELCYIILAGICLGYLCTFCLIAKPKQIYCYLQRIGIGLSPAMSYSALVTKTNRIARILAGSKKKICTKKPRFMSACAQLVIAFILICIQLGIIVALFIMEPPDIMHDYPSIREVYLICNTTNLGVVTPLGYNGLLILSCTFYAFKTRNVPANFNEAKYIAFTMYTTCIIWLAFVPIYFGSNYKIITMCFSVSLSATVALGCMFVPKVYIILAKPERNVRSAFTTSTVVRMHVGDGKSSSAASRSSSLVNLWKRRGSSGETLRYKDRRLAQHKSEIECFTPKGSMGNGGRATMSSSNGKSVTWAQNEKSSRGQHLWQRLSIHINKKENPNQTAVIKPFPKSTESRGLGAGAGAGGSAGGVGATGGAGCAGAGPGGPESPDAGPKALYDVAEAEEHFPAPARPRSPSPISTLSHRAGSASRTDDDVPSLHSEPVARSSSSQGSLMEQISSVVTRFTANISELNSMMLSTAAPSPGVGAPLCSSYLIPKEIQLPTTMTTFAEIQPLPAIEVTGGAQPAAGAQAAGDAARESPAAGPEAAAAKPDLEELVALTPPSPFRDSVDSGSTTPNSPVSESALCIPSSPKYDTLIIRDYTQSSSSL

Assays:
[1] = biological target: T1, Metabotropic glutamate receptor 5 (Rattus norvegicus, UniProt P31424); assay: (§1) Tested for displacement of [3H]3-methoxy-5-(pyridin-2-ylethynyl) pyridine from Metabotropic glutamate receptor 5 in rat cortical membrane; format: cell membranes
[2] = biological target: T1, Metabotropic glutamate receptor 5; assay: as §1; format: cell membranes; remark: listed apart in the source
In short: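 Rat cortical membranes; displacement of [3H]-3-methoxy-5-(pyridin-2-ylethynyl)pyridine bound to native mGlu5. Geometric mean with standard deviation and number of replicates.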

[3] = biological target: Metabotropic glutamate receptor 5 (Homo sapiens, UniProt P41594); assay: Tested in vitro against human recombinant Metabotropic glutamate receptor 5 stably expressed in LtK cells by [Ca2+] flux assay using glutamate as agonist

Row | Ki [1] [µM] | Ki [2] [µM] | IC50 [3] [µM] | SMILES
1 | 0.012 |  |  | Cc1cccc(C#Cc2ccccc2)n1
2 |  | 0.016 | 0.005 | Cc1nc(C#Cc2cccnc2)cs1
